Measurements as given in patent publication US7612034B2, “Treatment of subnormal bone mineral density” (Genelabs Technologies, Inc., priority 1999, dated 2009).

Assay: Oral uptake and absorption of DHEA polymorph preparations
Conditions: oral administration

SMILES	uptake by the GI tract
C[C@]12CC[C@H](O)CC1=CC[C@@H]1[C@@H]2CC[C@]2(C)C(=O)CC[C@@H]12 [DHEA form I, dehydroepiandrosterone]	good uptake by the GI tract
C[C@]12CC[C@H](O)CC1=CC[C@@H]1[C@@H]2CC[C@]2(C)C(=O)CC[C@@H]12 [DHEA form II, dehydroepiandrosterone]	good uptake by the GI tract
